Experimental data: publication PMC9174471
This is one part of the list.

The substances below were run against Obg-like ATPase 1 (UniProt Q9NTK5) (assay: cross-link between two proteins; cross-linking mass spectrometry).

| Substance | listed as a hit |
| --- | --- |
| Alpha-internexin, Q16352 | yes |
| Neuromodulin, P17677 | yes |
| Heterogeneous nuclear ribonucleoprotein U, Q00839 | yes |
| U2 small nuclear ribonucleoprotein A', P09661 | yes |
